Source: PubChem BioAssay AID1517 (The Scripps Research Institute Molecular Screening Center, 2009)
This is a selection; strong and weak results do not stand in their true shares. Active and inactive are the calls of the source.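 Rule for the calls: active = percent inhibition of p97 ATPase above a set limit, the primary screen's mean plus 3 SD (cut at about 15% in these data); inactive = the rest.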

Chains of the proteins cited; added tags and fusions are not shown.
UniProt P55072, whole entry, looked up: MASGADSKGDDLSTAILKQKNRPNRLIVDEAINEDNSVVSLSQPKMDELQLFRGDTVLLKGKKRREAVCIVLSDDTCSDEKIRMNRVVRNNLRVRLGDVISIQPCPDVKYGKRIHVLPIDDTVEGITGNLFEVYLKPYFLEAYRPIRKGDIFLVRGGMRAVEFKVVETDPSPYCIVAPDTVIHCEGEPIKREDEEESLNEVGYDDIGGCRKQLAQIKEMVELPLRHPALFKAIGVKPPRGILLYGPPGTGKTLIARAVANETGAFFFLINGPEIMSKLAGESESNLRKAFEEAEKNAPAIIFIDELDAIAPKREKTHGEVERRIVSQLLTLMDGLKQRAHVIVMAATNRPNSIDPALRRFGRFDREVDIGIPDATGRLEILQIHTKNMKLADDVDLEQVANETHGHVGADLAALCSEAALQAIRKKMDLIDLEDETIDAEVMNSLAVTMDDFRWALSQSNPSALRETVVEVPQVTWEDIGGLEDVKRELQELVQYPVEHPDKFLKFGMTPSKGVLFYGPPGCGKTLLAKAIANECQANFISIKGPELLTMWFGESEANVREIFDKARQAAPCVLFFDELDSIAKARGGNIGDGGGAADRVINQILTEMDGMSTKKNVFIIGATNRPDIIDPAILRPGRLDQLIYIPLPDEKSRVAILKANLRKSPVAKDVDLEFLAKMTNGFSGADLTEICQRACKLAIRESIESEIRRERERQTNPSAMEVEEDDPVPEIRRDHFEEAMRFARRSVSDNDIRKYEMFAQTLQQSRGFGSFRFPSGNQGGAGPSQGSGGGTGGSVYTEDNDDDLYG

Target: Transitional endoplasmic reticulum ATPase (Homo sapiens) (UniProt P55072)
Test: blockers of p97 ATP hydrolysis – biochemical, confirmation (AID 1517);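 note: 0% = DMSO wells and 100% = wells lacking p97 protein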
Settings: recombinant p97 ATPase, Kinase-Glo ATP luminescence; at 8 µM; stronger effect = higher value
Outline: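 Material: recombinant p97; timing: 30 min preincubation at 25 °C plus 3 h with ATP; signal: Kinase-Glo luminescence; read-out basis: percent inhibition of ATPase activity, normalized to DMSO and no-enzyme wells; benchmarks: DMSO wells without compound and wells lacking p97 enzyme; repeats: triplicate wells per compound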

SMILES | inhibition
CCc1nc2c(n1)c1c(non1O)c1c2no[n+]1[O-] | active: 18.8%
C[N+]1=C2C=CC=CC=C2SC12C([N+](=O)[O-])=CC([N+](=O)[O-])=C[C-]2[N+](=O)[O-] (configuration not stated) | inactive: 4.13%
